# In patent publication US20260014184A1, “ADENOSINE DERIVATIVES FOR USE IN THE TREATMENT OF NEURODEGENERATIVE DISORDERS AND CANCER” (UNIVERSITY COLLEGE CARDIFF CONSULTANTS LIMITED, priority 2022, published 2026):
# Protein sequences, listed by entry. Tags and fused reporters are not part of them. Residues count along the entry.
# UniProt Q9BXM7, 78-581: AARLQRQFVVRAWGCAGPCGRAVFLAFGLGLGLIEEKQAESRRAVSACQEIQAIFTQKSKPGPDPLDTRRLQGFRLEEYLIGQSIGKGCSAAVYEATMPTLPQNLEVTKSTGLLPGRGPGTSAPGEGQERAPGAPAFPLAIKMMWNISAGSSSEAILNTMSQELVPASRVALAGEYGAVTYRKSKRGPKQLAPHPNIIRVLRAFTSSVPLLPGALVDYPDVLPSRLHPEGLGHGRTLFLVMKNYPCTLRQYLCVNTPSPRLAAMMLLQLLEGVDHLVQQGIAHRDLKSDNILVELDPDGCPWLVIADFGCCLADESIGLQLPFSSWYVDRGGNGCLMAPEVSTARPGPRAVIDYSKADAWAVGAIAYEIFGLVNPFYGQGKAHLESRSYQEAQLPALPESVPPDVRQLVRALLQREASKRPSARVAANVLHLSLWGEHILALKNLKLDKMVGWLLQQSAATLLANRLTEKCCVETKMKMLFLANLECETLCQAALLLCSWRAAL
# Target: T1, PINK1 (Homo sapiens, UniProt Q9BXM7)
# T1 construct: HeLa cells, which express PINK1 endogenously; endogenous in cells; host or cells: HeLa cells transiently transfected with parkin
# Test: PINK1 activation in cells judged by parkin Ser65 phosphorylation (parkin-transfected HeLa cells)
# Format: cell-based
# Details: 10 μM CCCP, 3 h
# Experimental: Both HeLa and parkin-overexpressed HeLa cells were maintained in DMEM high glucose (Gibco), 10% FBS (Sigma-Aldrich) at 37° C. with 5% CO2. For experiments, cells were counted and seeded into a range of culture plates, depending on the experiment, cell counting was done using the Cellometer Auto T4 with TrypanBlue (Gibco). […] Alternatively, HeLa cells were seeded in well plates and then transfected with […] of parkin cDNA using the PEI method once the plated cells reached 60% confluency. After 6 hours, the media was changed. Sub-culturing was done when the cells reached ˜90% confluency.
# Cell culture with 70-80% confluency was lysed as follows: cells were washed with Phosphate Buffer Saline (PBS) (Sigma). […]
# The cells were scrapped and transferred to the microtube and eventually spun down at 12,000 rpm for 15 minutes at 4° C. […] Protein concentration was measured using Bradford Assay. […]
substance,measurement,value
"carbonyl cyanide m-chlorophenyl-hydrazine [CCCP, reference compound]","activation of PINK1 as judged by parkin Ser65 phosphorylation, CCCP control",prominent activation of PINK1
